Data reported in ChEMBL document CHEMBL1777813, “Discovery of novel tetracyclic compounds as anaplastic lymphoma kinase inhibitors” (Bioorg Med Chem Lett, 2011).

Protein sequences, listed by entry. Tags and fused reporters are not part of them. Residues count along the entry.
UniProt P06213, 28-758 limits assumed: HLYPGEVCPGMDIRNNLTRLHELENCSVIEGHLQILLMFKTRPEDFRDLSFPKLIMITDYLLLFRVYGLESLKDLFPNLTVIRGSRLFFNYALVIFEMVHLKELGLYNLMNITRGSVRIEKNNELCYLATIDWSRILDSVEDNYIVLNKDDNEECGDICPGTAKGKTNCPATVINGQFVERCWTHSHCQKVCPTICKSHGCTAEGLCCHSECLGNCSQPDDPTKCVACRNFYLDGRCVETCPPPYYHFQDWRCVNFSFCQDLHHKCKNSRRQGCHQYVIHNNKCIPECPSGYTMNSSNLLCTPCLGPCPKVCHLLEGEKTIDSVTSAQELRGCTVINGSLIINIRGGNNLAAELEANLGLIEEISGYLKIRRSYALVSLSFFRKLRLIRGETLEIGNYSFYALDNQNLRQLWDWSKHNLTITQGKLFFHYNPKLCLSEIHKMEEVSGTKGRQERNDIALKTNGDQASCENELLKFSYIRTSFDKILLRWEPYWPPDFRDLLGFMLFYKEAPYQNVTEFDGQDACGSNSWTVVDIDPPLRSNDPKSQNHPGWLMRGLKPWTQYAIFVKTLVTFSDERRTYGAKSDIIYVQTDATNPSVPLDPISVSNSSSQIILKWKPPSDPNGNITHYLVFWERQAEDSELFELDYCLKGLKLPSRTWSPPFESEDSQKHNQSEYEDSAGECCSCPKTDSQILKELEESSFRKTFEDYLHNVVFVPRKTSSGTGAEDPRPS
UniProt P06213, 763-1382 limits assumed: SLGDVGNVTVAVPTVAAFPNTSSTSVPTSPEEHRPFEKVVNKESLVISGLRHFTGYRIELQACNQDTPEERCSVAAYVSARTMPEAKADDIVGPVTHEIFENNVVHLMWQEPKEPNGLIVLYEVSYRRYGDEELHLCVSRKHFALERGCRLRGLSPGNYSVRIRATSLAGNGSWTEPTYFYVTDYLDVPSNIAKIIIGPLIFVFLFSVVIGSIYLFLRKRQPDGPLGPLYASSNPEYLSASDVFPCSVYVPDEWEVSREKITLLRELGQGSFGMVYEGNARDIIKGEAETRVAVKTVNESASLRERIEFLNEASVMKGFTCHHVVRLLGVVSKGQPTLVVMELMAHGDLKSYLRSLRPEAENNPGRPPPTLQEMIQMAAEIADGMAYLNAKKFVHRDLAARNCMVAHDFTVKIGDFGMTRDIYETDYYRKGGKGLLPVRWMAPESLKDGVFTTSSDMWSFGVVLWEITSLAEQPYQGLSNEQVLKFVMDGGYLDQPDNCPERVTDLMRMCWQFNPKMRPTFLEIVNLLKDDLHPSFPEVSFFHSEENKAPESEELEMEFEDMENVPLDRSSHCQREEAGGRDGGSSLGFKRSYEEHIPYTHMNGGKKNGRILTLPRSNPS

Target: Insulin receptor (Homo sapiens, UniProt P06213)

CC1(C)c2cc(C3CCN(C4COC4)CC3)ccc2C(=O)c2c1[nH]c1cc(C#N)ccc21
IC50: 310 nM
